Results as given in patent US20100028447A1, “Intranasal, Buccal, And Sublingual Administration Of Metanicotine Analogs” (TARGACEPT, INC., priority 2007, published 2010).

Assay: In situ brain perfusion, single time-point method

SMILES: CC(C)NCC(O)COc1ccc(CC(N)=O)cc1 (stereo not shown) [Atenolol]
- Vascular Space (Table 4 Treatment 2: Compound B perfused with references + MAO inhibitor Pargyline, Rat 1): 16.59 µL/g
- Vascular Space (Table 4 Treatment 2: Compound B perfused with references + MAO inhibitor Pargyline, Rat 2): 13.69 µL/g
- Vascular Space (Table 4 Treatment 2: Compound B perfused with references + MAO inhibitor Pargyline, Rat 3): 10.89 µL/g
- Vascular Space (in all animals): ≤ 20 μL/g of brain tissue
